# PMC7904827, “Development of water-soluble prodrugs of the bisdioxopiperazine topoisomerase IIβ inhibitor ICRF-193 as potential cardioprotective agents against anthracycline cardiotoxicity” (Scientific Reports, 2021)
# Assay: Post-preparation stability of the extracted analytes in autosampler (8 °C)
# Format: physicochemical
# Conditions: extracted buffer, 100 µM, 10 h
# Method: Linearity was tested within the concentration range of 0.2 – 100 μM for all compounds in DMEM, the buffer and plasma and 10-100 pmol/106cells in NVCMs (method I). For method II, the concentration ranges 0.01-15 μM and 0.01-1 μM were used for determination of ICRF-193 and ICRF-193met in plasma, respectively. Unweighted and weighted (1/x and 1/x2) linear regression was applied to obtain the best fitting calibration model.
# Accuracy and precision were calculated at 4 levels (LLOQ, low, medium and high concentrations). Five quality control (QC) samples were used for all concentration levels. […]
# Stability of the analytes was examined at low and high concentrations. Process s tability (n=3) in plasma was tested for 20 min at either laboratory temperature (23 °C) or on ice (4 °C, only for GK-667). Post-preparation stability was examined for 8 to 10 h in an autosampler (8 °C, n=3) for all treated matrices. Freeze-thaw stability of ICRF-193 and ICRF-193met in […]
# plasma was tested at -80 °C and the freezing cycle was repeated twice (n=3). The buffer, DMEM, NVCMs and plasma samples containing GK -667 from in vitro studies and from first intervals of pharmacokinetic study (up to 20 min) w ere treated and analyzed immediately after […]
smiles,measurement,value
C[C@H]([C@H](C)N(CC(N)=O)CC(=O)O)N(CC(N)=O)CC(=O)O [ICRF-193met],percentage of initial concentration in autosampler,100.9%
